{
  "sequences": {"note": "The chains behind the UniProt entries cited, without tags or fusion partners.", "UniProt O14649, whole entry": "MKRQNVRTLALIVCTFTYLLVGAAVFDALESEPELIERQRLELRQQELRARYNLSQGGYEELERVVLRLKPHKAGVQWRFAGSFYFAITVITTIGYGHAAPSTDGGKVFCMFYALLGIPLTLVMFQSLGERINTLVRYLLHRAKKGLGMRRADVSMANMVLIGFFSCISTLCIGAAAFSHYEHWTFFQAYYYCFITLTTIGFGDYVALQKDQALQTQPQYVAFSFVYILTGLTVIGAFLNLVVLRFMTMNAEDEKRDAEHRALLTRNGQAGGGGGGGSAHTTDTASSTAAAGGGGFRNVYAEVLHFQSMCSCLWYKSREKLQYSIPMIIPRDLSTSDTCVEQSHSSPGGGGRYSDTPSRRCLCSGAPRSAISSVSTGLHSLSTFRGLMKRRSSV"},
  "source": "PubChem BioAssay AID602410",
  "about": "(Johns Hopkins Ion Channel Center, 2012)",
  "note": "The entries are a selection whose mix differs from that of the whole data set. Calls of active or inactive are those of the source.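 How the source made its calls: active means B-score under library mean minus 4 SD, starting fluorescence ratio at most library mean plus 5 SD; inactive means the rest.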",
  "data": [
    {"biological_target": "Potassium channel subfamily K member 3 (Homo sapiens) (UniProt O14649)", "experiment": "human KCNK3 channel inhibitors, primary screen, CHO cells, FluxOR thallium flux, B-score (AID 602410)", "details": "FluxOR fluorescence, at 10 µM", "values": [
      {"smiles": "CCC(=O)N(c1ccccc1)C1(COC)CCN(CCn2nnn(CC)c2=O)CC1", "outcome": "inactive"},
      {"smiles": "CCC(=O)N(c1ccccc1)C1(COC)CCN(CCc2cccs2)CC1", "outcome": "inactive"}
    ]}
  ]
}
